This note sets out measurements from ChEMBL document CHEMBL1144926, “Structure-activity relationships of dynorphin a analogues modified in the address sequence” (J Med Chem, 2003).

By UniProt entry, the sequences of proteins in these tests, tags left out. Where a name states a change or a piece, a line headed by the entry shows the natural chain unless it says otherwise.
UniProt P41145: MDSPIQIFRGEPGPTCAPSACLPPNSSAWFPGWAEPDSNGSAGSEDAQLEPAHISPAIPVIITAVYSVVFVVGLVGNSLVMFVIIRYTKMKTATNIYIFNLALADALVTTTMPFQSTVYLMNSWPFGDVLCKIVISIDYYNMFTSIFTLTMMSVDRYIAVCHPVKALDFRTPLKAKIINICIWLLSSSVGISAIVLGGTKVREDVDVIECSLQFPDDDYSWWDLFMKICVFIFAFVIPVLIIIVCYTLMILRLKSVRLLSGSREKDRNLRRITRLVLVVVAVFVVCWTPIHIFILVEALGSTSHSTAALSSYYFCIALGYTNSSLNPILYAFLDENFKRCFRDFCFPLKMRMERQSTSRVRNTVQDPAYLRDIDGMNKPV
UniProt P41143, whole entry: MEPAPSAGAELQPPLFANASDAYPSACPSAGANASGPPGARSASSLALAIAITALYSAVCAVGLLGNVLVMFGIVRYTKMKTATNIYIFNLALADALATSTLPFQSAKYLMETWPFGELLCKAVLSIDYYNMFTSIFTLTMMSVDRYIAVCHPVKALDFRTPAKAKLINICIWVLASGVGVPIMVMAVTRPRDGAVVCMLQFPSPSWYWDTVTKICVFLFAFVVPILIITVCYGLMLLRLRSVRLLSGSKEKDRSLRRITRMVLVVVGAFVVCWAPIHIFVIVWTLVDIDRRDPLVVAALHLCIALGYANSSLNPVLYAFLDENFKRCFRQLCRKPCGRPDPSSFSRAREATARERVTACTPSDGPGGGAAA

Assay [1] concerns the target Kappa-type opioid receptor (Homo sapiens, UniProt P41145). As to the kind of experiment: biochemical. The class given is cell-based, CHO.
In assay [2] the target is Delta-type opioid receptor (Homo sapiens, UniProt P41143). Description: In vitro binding affinity to human Opioid receptor delta 1 on CHO cell membranes using [3H]diprenorphine displacement.

For `CC[C@H](C)[C@H](NC(=O)[C@H](CCCN=C(N)N)NC(=O)[C@H](CCCN=C(N)N)NC(=O)[C@H](CC(C)C)NC(=O)[C@H](Cc1ccccc1)NC(=O)CNC(=O)CNC(=O)[C@@H](N)Cc1ccc(O)cc1)C(=O)O`, the Ki in assay [1] came out at 4.6 nM; in assay [2], 8.5 nM.

Broadly, the Ki is the dissociation constant of the complex between target and ligand, obtained from inhibition or displacement. A high value points to a looser hold on the target.
